Source: PubChem BioAssay AID463193 (University of Pittsburgh Molecular Library Screening Center, 2010)
Only a part is listed here, and it is no random draw. Activity calls are given as the source filed them.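 How the source made its calls: active means percentage of spot-positive cells more than 3 SD above its plate mean, without a fluorescence outlier flag or 80% toxicity; inconclusive means no clear call, values can overlap the other calls; inactive means the rest.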

Assay: autophagy modulators in MEF cells, primary screen, imaging, high-content, MEF GFP-LC3 (AID 463193);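 further: spot-positive cell cutoff set from DMSO-treated cells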
Conditions: MEF GFP-LC3 puncta imaging, at 10 µM, stronger effect = higher value

Compound	% cells with GFP-LC3 spots
Cc1c(NP(C)(=O)Oc2ccc(C(C)C)cc2)c(=O)n(-c2ccccc2)n1C (stereo not drawn)	inactive: 8.38%
CC(C)CC(=O)NC(Sc1ccc(Cl)cc1)C(Cl)(Cl)Cl (stereo not drawn)	inactive: 3.99%
O=[N+]([O-])c1cc([N+](=O)[O-])c(Nc2ccccn2)c([N+](=O)[O-])c1	inactive: 1.61%
Oc1ccccc1CNc1ccccn1	inactive: 3.06%
O=C(NC(Sc1ccncn1)C(Cl)(Cl)Cl)c1ccccc1 (stereo not drawn)	inactive: 12.7%
Cc1c2non([O-])c-2c(C)[n+](=O)[n+]1[O-]	inactive: 1.91%
CP(=O)(Nc1ccccn1)Oc1ccccc1 (stereo not drawn)	inactive: 9.74%
COc1ccccc1OP(C)(=O)Nc1ccc(C)cc1C (stereo not drawn)	inactive: 1.85%
CCc1ccc(OP(C)(=O)O)cc1	inactive: 6.13%
NC(=O)c1cc([N+](=O)[O-])cc([N+](=O)[O-])c1N	inactive: 1.89%
Cc1ccc(N/C(=N/P(=O)(N2CCOCC2)N2CCOCC2)N2CCOCC2)cc1	inactive: 3.96%
COc1ccccc1OP(=O)(Nc1ccc(C)cn1)Oc1ccccc1OC	inactive: 0%
COc1ccc(OP(C)(=O)Nc2ccccn2)cc1 (stereo not drawn)	inactive: 2.96%
CN1CCCC(OC(=O)C(c2ccccc2)c2ccccc2)C1 (stereo not drawn)	inactive: 11.4%
Clc1ccc(Cl)c(NC2=NCC(CBr)S2)c1 (stereo not drawn)	inactive: 14.5%
CN(C)CCOC(=O)C(O)(c1ccccc1)C1CCCC1 (stereo not drawn)	inactive: 0.144%
Cc1nc2ccc3ccccc3c2o1.O=[N+]([O-])c1cc([N+](=O)[O-])c(O)c([N+](=O)[O-])c1	inactive: 3.83%
CCN(N=Nc1nonc1N)c1nonc1N	inactive: 3.23%
CP(=O)(Nc1ccc(Cl)cc1Cl)Oc1ccccc1 (stereo not drawn)	inactive: 1.85%
CP(=O)(OCCOc1ccccc1)OCCOc1ccccc1	inactive: 8.27%
Cc1cc(C)cc(OP(C)(=O)Nc2cccc(C(F)(F)F)c2)c1 (stereo not drawn)	inactive: 0.541%
Cc1cc(SC(NC(=O)c2ccc(F)cc2)C(Cl)(Cl)Cl)ncn1 (stereo not drawn)	inactive: 7.95%
CCOP(=O)(Nc1ccccc1)OCC	inactive: 13.7%
COc1ccccc1OP(C)(=O)Nc1ccc(C)c(C)c1 (stereo not drawn)	inactive: 3.94%
COc1ccc(OP(C)(=O)Nc2ccccc2Br)cc1 (stereo not drawn)	inactive: 10.3%
O=[N+]([O-])c1ncn(CCn2ncnc2[N+](=O)[O-])n1	inactive: 6.87%
CCOC(=O)c1ccc(NP(C)(=O)Oc2ccc(Cl)cc2)cc1 (stereo not drawn)	inactive: 22.3%
CP(=O)(OC12CC3CC(CC(C3)C1)C2)OC12CC3CC(CC(C3)C1)C2	inactive: 3.48%
